From PubChem BioAssay (NCI)
Some of these compounds have results that are not shown, active ones among them.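 Dose response: 5 concentrations. Exposure: 48 h. Format: 96-well plates. Endpoint: linear interpolation; highest concentration if not reached. The concentration for 50% growth inhibition is given as GI50. TGI denotes the concentration required for complete inhibition of growth.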

Assays:
Experiment in all cases: inhibition of tumour cell growth, NCI panel, 48 h
HOP-92 NSCLC = tested on: HOP-92 NSCLC
MALME-3M melanoma = tested on: MALME-3M melanoma
SR leukemia = tested on: SR leukemia
UACC-62 melanoma = tested on: UACC-62 melanoma
LOX IMVI melanoma = tested on: LOX IMVI melanoma
OVCAR-3 ovarian = tested on: OVCAR-3 ovarian
HCC-2998 colon = tested on: HCC-2998 colon
RXF 393 renal = tested on: RXF 393 renal
A498 renal = tested on: A498 renal
UO-31 renal = tested on: UO-31 renal
MDA-MB-231 breast = tested on: MDA-MB-231 breast
T-47D breast = tested on: T-47D breast
SF-268 CNS = tested on: SF-268 CNS
SF-295 CNS = tested on: SF-295 CNS
UACC-257 melanoma = tested on: UACC-257 melanoma
HCT-116 colon = tested on: HCT-116 colon
OVCAR-8 ovarian = tested on: OVCAR-8 ovarian
HS 578T breast = tested on: HS 578T breast
OVCAR-5 ovarian = tested on: OVCAR-5 ovarian
MDA-N = tested on: MDA-N
HT29 colon = tested on: HT29 colon
NCI-H460 lung = tested on: NCI-H460 lung
SK-MEL-28 melanoma = tested on: SK-MEL-28 melanoma
CCRF-CEM leukemia = tested on: CCRF-CEM leukemia
SW-620 colon = tested on: SW-620 colon
HCT-15 colon = tested on: HCT-15 colon
RPMI-8226 leukemia = tested on: RPMI-8226 leukemia
OVCAR-4 ovarian = tested on: OVCAR-4 ovarian
786-0 renal = tested on: 786-0 renal

CCCC#CC(O)(C(=O)OC1CN2CCC1CC2)C1CCCC1 (configuration not stated)
TGI (HOP-92 NSCLC): > 100 µM
GI50 (MALME-3M melanoma): > 100 µM
TGI (MALME-3M melanoma): > 100 µM
GI50 (SR leukemia): > 100 µM
TGI (SR leukemia): > 100 µM
GI50 (UACC-62 melanoma): > 100 µM
TGI (UACC-62 melanoma): > 100 µM
GI50 (LOX IMVI melanoma): > 100 µM
TGI (LOX IMVI melanoma): > 100 µM
GI50 (OVCAR-3 ovarian): > 100 µM
TGI (OVCAR-3 ovarian): > 100 µM
GI50 (HCC-2998 colon): > 100 µM
TGI (HCC-2998 colon): > 100 µM
GI50 (RXF 393 renal): > 100 µM
TGI (RXF 393 renal): > 100 µM
GI50 (A498 renal): > 100 µM
TGI (A498 renal): > 100 µM
GI50 (UO-31 renal): > 100 µM
TGI (UO-31 renal): > 100 µM
GI50 (MDA-MB-231 breast): > 100 µM
TGI (MDA-MB-231 breast): > 100 µM
GI50 (T-47D breast): > 100 µM
TGI (T-47D breast): > 100 µM
GI50 (SF-268 CNS): > 100 µM
TGI (SF-268 CNS): > 100 µM
GI50 (SF-295 CNS): > 100 µM
TGI (SF-295 CNS): > 100 µM
GI50 (UACC-257 melanoma): > 100 µM
TGI (UACC-257 melanoma): > 100 µM
GI50 (HCT-116 colon): > 100 µM
TGI (HCT-116 colon): > 100 µM
GI50 (OVCAR-8 ovarian): > 100 µM
TGI (OVCAR-8 ovarian): > 100 µM
GI50 (HS 578T breast): > 100 µM
TGI (HS 578T breast): > 100 µM
GI50 (OVCAR-5 ovarian): > 100 µM
TGI (OVCAR-5 ovarian): > 100 µM
GI50 (MDA-N): > 100 µM
TGI (MDA-N): > 100 µM
GI50 (HT29 colon): > 100 µM
TGI (HT29 colon): > 100 µM
GI50 (NCI-H460 lung): > 100 µM
TGI (NCI-H460 lung): > 100 µM
GI50 (SK-MEL-28 melanoma): > 100 µM
TGI (SK-MEL-28 melanoma): > 100 µM
GI50 (CCRF-CEM leukemia): > 100 µM
TGI (CCRF-CEM leukemia): > 100 µM
GI50 (SW-620 colon): > 100 µM
TGI (SW-620 colon): > 100 µM
GI50 (HCT-15 colon): > 100 µM
TGI (HCT-15 colon): > 100 µM
GI50 (RPMI-8226 leukemia): > 100 µM
TGI (RPMI-8226 leukemia): > 100 µM
GI50 (OVCAR-4 ovarian): > 100 µM
TGI (OVCAR-4 ovarian): > 100 µM
GI50 (786-0 renal): > 100 µM
TGI (786-0 renal): > 100 µM
